Values of other authors, collected in US20220090096A1 (priority 2019, published 2022).

Tested on: aptamer of the theophylline-responsive riboswitch
Conditions: cited from earlier work

SMILES: Cn1c(=O)c2[nH]cnc2n(C)c1=O [theophylline]
- binding affinity for theophylline greater than that of caffeine: 10,000 fold
